Tests used:
NF-κB signaling pathways = assay: U2OS NF-κB EFC reporter assay, TNFα stimulation of single-cell clones; format: cell-based; conditions: 6h stimulation; range over the different clones; read-out: potency of TNFα
Description: NF-kB EFC Reporter Plasmid includes a promoter that has 5 tandemly repeated NF-κB transcription factor binding response elements, where of 3 GGGAATTTCC (SEQ ID NO:6) sequences are interspersed by 2 alternating GGGGACTTTCC (SEQ ID NO:6) sequences.
FIG. 4. Response to cytokine TNFα of single-cell clones of U20S NF-κB EFC Reporter cells. 2500 cells/well from 5 individual single-cell clones of a U2OS cells stably expressing NF-κB EFC Reporter construct were plated in a 384 well plate. Cells were stimulated with the indicated concentrations of TNFα for 6h followed by detection by PathHunter® FLASH detection reagent (+5×EA) with cell lysis.
TNFα is known to stimulate the “NF-κB signaling pathways” and the NF-κB transcription factor. Stimulation of U2OS cells stably transfected with NF-κB EFC Reporter construct using different dilutions of TNFα for 6h reveal a dose dependent stimulation of the NF-κB EFC reporter as evidenced by EFC after addition of +EA (FIG. 4). […] Assays for inhibition could be developed by looking for decreases in RLUs with test compounds in the presence of stimulating doses of TNFα is or other activating ligands (see FIG. 5).

TNF receptor = assay: EFC-based versus Luciferase NFκB transcriptional reporter assay, TNFα; format: cell-based; conditions: 18h stimulation
Description: FIG. 14. […] U2OS cells stably transfected with a plasmid encoding an NFκB transcriptional response element driving expression of either the EFC reporter (left panel) or (Firefly) Luciferase-PEST were stimulated with a range of concentrations of TNFα for 18h followed by cell lysis, addition of excess EA, incubation for 1h and determination of luminescence (RLU). The luminescence detected indicates the extent of induction of the respective carrier protein by TNFα.

“TNFα: cytokine known to stimulate the NF-κB signaling pathways; TNF receptor ligand” was tested, and the EC50 (NF-κB signaling pathways) was 0.03 to 0.12 nM and the “potency in the EFC assay relative to the Luciferase assays” value (TNF receptor) was 12-15.

— patent US20200308591A1, “PROMOTER REGION ANALYSIS METHODS AND CELLS FOR PRACTICING SAME” (Eurofins DiscoverX Corporation, priority 2019, published 2020)
